Results from paper PMC8924070.

Experiment: FACS, PD-1-His staining of PD-L1-expressing 293T cells
Conditions: glycan lost; control: PD-1-WT-His

B1: PD-1: PD-1-N58A (protein)
parent chain: MQIPQAPWPVVWAVLQLGWRPGWFLDSPDRPWNPPTFSPALLVVTEGDNATFTCSFSNTSESFVLNWYRMSPSNQTDKLAAFPEDRSQPGQDCRFRVTQLPNGRDFHMSVVRARRNDSGTYLCGAISLAPKAQIKESLRAELRVTERRAEVPTAHPSPSPRPAGQFQTLVVGVVGGLLGSLVLLVWVLAVICSRAARGTIGARRTGQPLKEDPSAVPVFSVDYGELDFQWREKTPEPPVPCVPEQTEYATIVFPSGMGTSSPARRGSADGPRSAQPLRPEDGHCSWPL
In the case of B1, the “other: antibody blocking of PD-1/PD-L1 binding” value is reported as “decreases”.
